Measured values reported in US10023561B2, “Fumagillol heterocyclic compounds and methods of making and using same” (Zafgen, Inc., priority 2015, dated 2018).
Structures can show the parent of a compound that is named as a salt.

These molecules were tested on human fibrosarcoma cell line HT-1080 (assay: HT-1080 cell proliferation assay (CellTiter-Glo, 72 hours)). Conditions: HT-1080, 72 h, read-out: HT-1080 EC50 (nM).
Format: cell-based

With `CO[C@@H]1[C@H](OC(=O)N2CC(OC(=O)N3CCN(CC(F)(F)F)CC3)C2)CC[C@]2(CO2)[C@H]1[C@@]1(C)O[C@@H]1CC=C(C)C` [Example 81, 1-(((3R,4S,5S,6R)-5-methoxy-4-((2R,3R)-2-methyl-3-(3-methylbut-2-enyl)oxiran-2-yl)-1-oxaspiro[2.5]octan-6-yloxy)carbonyl)azetidin-3-yl 4-(2,2,2-trifluoroethyl)piperazine-1-carboxylate] as the molecule, how does the EC50 read?
Its EC50 is 0.3 to 1.3 nM.

How did the EC50 turn out when `CO[C@@H]1[C@H](OC(=O)N2CC(CCN3CC(F)(F)C3)C2)CC[C@]2(CO2)[C@H]1[C@@]1(C)O[C@@H]1CC=C(C)C` [Example 2, (3R,4S,5S,6R)-5-methoxy-4-((2R,3R)-2-methyl-3-(3-methylbut-2-enyl)oxiran-2-yl)-1-oxaspiro[2.5]octan-6-yl 3-(2-(3,3-difluoroazetidin-1-yl)ethyl)azetidine-1-carboxylate] was run?
The EC50 was under 0.3 nM.

How did the EC50 turn out when `CO[C@@H]1[C@H](OC(=O)/C=C/c2ccc(OCCN(C)C)cc2)CC[C@]2(CO2)[C@H]1[C@@]1(C)O[C@@H]1CC=C(C)C` [compound A, [(3R,6R,7S,8S)-7-methoxy-8-[(2R,3R)-2-methyl-3-(3-methylbut-2-enyl)oxiran-2-yl]-2-oxaspiro[2.5]octan-6-yl] (E)-3-[4-[2-(dimethylamino)ethoxy]phenyl]prop-2-enoate, reference compound] was run?
The EC50 was 0.3 to 1.3 nM.

How did the EC50 turn out when `CO[C@@H]1[C@H](OC(=O)N2CC(CCC3CCN(CC(F)F)CC3)C2)CC[C@]2(CO2)[C@H]1[C@@]1(C)O[C@@H]1CC=C(C)C` [Example 91, (3R,4S,5S,6R)-5-methoxy-4-((2R,3R)-2-methyl-3-(3-methylbut-2-enyl)oxiran-2-yl)-1-oxaspiro[2.5]octan-6-yl 3-(2-(1-(2,2-difluoroethyl)piperidin-4-yl)ethyl)azetidine-1-carboxylate formate] was run?
Its EC50 is 0.3 to 1.3 nM.

`CCN(CC)CCCC1CN(C(=O)O[C@@H]2CC[C@]3(CO3)[C@@H]([C@@]3(C)O[C@@H]3CC=C(C)C)[C@@H]2OC)C1` [Example 104, (3R,4S,5S,6R)-5-methoxy-4-((2R,3R)-2-methyl-3-(3-methylbut-2-enyl)oxiran-2-yl)-1-oxaspiro[2.5]octan-6-yl 3-(3-(diethylamino)propyl)azetidine-1-carboxylate] was tested. Which EC50 did it give?
The EC50 was under 0.3 nM.

How did the EC50 turn out when `CO[C@@H]1[C@H](OC(=O)N2CC(Cc3ccc(C)nc3)C2)CC[C@]2(CO2)[C@H]1[C@@]1(C)O[C@@H]1CC=C(C)C` [Example 101, (3R,4S,5S,6R)-5-methoxy-4-((2R,3R)-2-methyl-3-(3-methylbut-2-enyl)oxiran-2-yl)-1-oxaspiro[2.5]octan-6-yl 3-((6-methylpyridin-3-yl)methyl)azetidine-1-carboxylate] was run?
Its EC50 is 0.3 to 1.3 nM.

How did the EC50 turn out when `CO[C@@H]1[C@H](OC(=O)N2CC(CCN3CCOCC3)C2)CC[C@]2(CO2)[C@H]1[C@@]1(C)O[C@@H]1CC=C(C)C` [Example 1, (3R,4S,5S,6R)-5-methoxy-4-((2R,3R)-2-methyl-3-(3-methylbut-2-en-1-yl)oxiran-2-yl)-1-oxaspiro[2.5]octan-6-yl 3-(2-morpholinoethyl)azetidine-1-carboxylate] was run?
The EC50 was under 0.3 nM.

How did the EC50 turn out when `CO[C@@H]1[C@H](OC(=O)N2CC(OC(=O)N3CCOCC3)C2)CC[C@]2(CO2)[C@H]1[C@@]1(C)O[C@@H]1CC=C(C)C` [Example 71, 1-(((3R,4S,5S,6R)-5-methoxy-4-((2R,3R)-2-methyl-3-(3-methylbut-2-enyl)oxiran-2-yl)-1-oxaspiro[2.5]octan-6-yloxy)carbonyl)azetidin-3-yl morpholine-4-carboxylate formate] was run?
The EC50 was under 0.3 nM.

With `CO[C@@H]1[C@H](OC(=O)N2CC(OC(=O)N3CCN(C)CC3)C2)CC[C@]2(CO2)[C@H]1[C@@]1(C)O[C@@H]1CC=C(C)C` [Example 78, 1-(((3R,4S,5S,6R)-5-methoxy-4-((2R,3R)-2-methyl-3-(3-methylbut-2-enyl)oxiran-2-yl)-1-oxaspiro[2.5]octan-6-yloxy)carbonyl)azetidin-3-yl 4-methylpiperazine-1-carboxylate] as the molecule, how does the EC50 read?
Its EC50 is 0.3 to 1.3 nM.
